Test results from article PMC10326142, “A phase I trial of the pan-ERBB inhibitor neratinib combined with the MEK inhibitor trametinib in patients with advanced cancer with EGFR mutation/amplification, HER2 mutation/amplification, HER3/4 mutation or KRAS mutation” (Cancer Chemotherapy and Pharmacology, 2023).

Assays:
[1] = Plasma pharmacokinetics of neratinib and trametinib co-administered, cycle 1 day 15 (LC/MS, noncompartmental); type: in vivo, human
Method: PK parameters for trametinib and neratinib were determined using noncompartmental analysis methods using Phoenix WinNonlin 8.1 (Certara USA Inc, Princeton, NJ, USA).

[2] = mean (range), ref Infante et al. 32, cited from earlier work
[3] = system: patients; conditions: cited from earlier work
[4] = monotherapy 1mg, N=2, ref Infante et al 32
[5] = monotherapy 2mg, N=70, cell as count (percent), ref Infante et al 32

AR (accumulation ratio) ([1]; co-administered at dose level minus 1 (160 mg neratinib daily with 1 mg trametinib 5 days on and 2 days off), day 15, 8 patients, mean (range)): 13.9 (1.3–14.9)
accumulation ratios (AR) relative to those reported by Infante et al. ([1]; day 15, co-administered with neratinib vs single agent (ref 32)): 2–3 times
Structure (SMILES): CC(=O)Nc1cccc(-n2c(=O)n(C3CC3)c(=O)c3c(Nc4ccc(I)cc4F)n(C)c(=O)c(C)c32)c1 [trametinib]
AR (accumulation ratio) ([2]; single agent trametinib 2 mg, 13 patients): 5.97 (4.03–11.5)
AR (accumulation ratio) ([2]; single agent trametinib 2.5 mg, 16 patients): 4.19 (1.02–13.1)
AR (accumulation ratio) ([2]; single agent trametinib 3 mg, 16 patients): 5.93 (1.50–18.0)
Grade > 3 TRAE: Diarrhea [3, 4]: 0
Grade > 3 TRAE: Rash [3, 4]: 0
Grade > 3 TRAE: Vomiting [3, 4]: 0
TRAE of all grades: Diarrhea [3, 5]: 32 (46)
TRAE of all grades: Fatigue [3, 5]: 21 (30)
TRAE of all grades: Rash [3, 5]: 59 (84)

Like-named read-outs stand apart in the source and are kept apart here.
